One data set deals with T1, Peptide 2.
T1 chain: CCSLCCNPACTGC

The target of the next data set is T2, Peptide 1.
T2 chain: CCSLCCNPACTGCY

The next data set deals with T3, Peptide 3.
T3 chain: CCELCCNPACTGCY

B1: Human prostate acid phosphatase (HuPrAP) (protein)
chain: KELKFVTLVFRHGDRSPIDTFPTDPIKESSWPQGFGQLTQLGMEQHYELGEYIRKRYRKFLNESYKHEQVYIRSTDVDRTLMSAMTNLAALFPPEGVSIWNPILLWQPIPVHTVPLSEDQLLYLPFRNCPRFQELESETLKSEEFQKRLHPYKDFIATLGKLSGLHGQDLFGIWSKVYDPLYCESVHNFTLPSWATEDTMTKLRELSELSLLSLYGIHKQKEKSRLQGGVLVNEILNHMKRATQIPSYKKLIMYSAHDTTVSGLQMALDVYNGLLPPYASCHLTELYFEKGEYFVEMYYRNETQHEPYPLMLPGCSPSCPLERFAELVGPVIPQDWSTECMTTNSHQGTEDSTD
As for B1, in the data set with Peptide 2, the Peptide 2 Dephospho (%), LC-MS after phosphatase treatment, pH 5 stood at 4.1% and the Peptide 2 Remaining (%), LC-MS after phosphatase treatment, pH 5 stood at 95.9%. In the data set with Peptide 1, this protein had a Peptide 1 Dephospho (%), LC-MS after phosphatase treatment, pH 5 of 6.2% and a Peptide 1 Remaining (%), LC-MS after phosphatase treatment, pH 5 of 93.8%.

B2: Calf intestinal alkaline phosphatase (CIP) (protein)
chain: LVPVEEEDPAFWNRQAAQALDVAKKLQPIQTAAKNVILFLGDGMGVPTVTATRILKGQMNGKLGPETPLAMDQFPYVALSKTYNVDRQVPDSAGTATAYLCGVKGNYRTIGVSAAARYNQCKTTRGNEVTSVMNRAKKAGKSVGVVTTTRVQHASPAGAYAHTVNRNWYSDADLPADAQMNGCQDIAAQLVNNMDIDVILGGGRKYMFPVGTPDPEYPDDASVNGVRKRKQNLVQAWQAKHQGAQYVWNRTALLQAADDSSVTHLMGLFEPADMKYNVQQDHTKDPTLQEMTEVALRVVSRNPRGFYLFVEGGRIDHGHHDDKAYMALTEAGMFDNAIAKANELTSELDTLILVTADHSHVFSFGGYTLRGTSIFGLAPSKALDSKSYTSILYGNGPGYALGGGSRPDVNDSTSEDPSYQQQAAVPQASETHGGEDVAVFARGPQAHLVHGVEEETFVAHIMAFAGCVEPYTDCNLPAPTTATSIPD
Regarding B2, in the data set with Peptide 3, the “LC-MS after treatment with and without calf intestinal alkaline phosphatase” value was “Peptide 3 was not affected by CIP treatment (data not shown)”. In the data set with Peptide 2, the Peptide 2 Dephospho (%), LC-MS after phosphatase treatment, pH 8 is 100% and the Peptide 2 Remaining (%), LC-MS after phosphatase treatment, pH 8 worked out at 0%. In the data set with Peptide 1, this protein yielded a Peptide 1 Dephospho (%), LC-MS after phosphatase treatment, pH 8 of 100%.

Values taken from patent publication US20150030697, “Treatments for gastrointestinal disorders” (published 2015).
